OPERA 2.9 data: melting point values

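OPERA's authors assembled the values from existing databases and did not measure them anew. One number stands for a compound and property, with no spread given. Method and conditions are not stated for these values. The measured form (salt, isomer or mixture) is not always the one drawn. Some entries may be limits or estimates that an upstream database listed as plain numbers.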

Melting points are in °C. The databases behind each value are named after "via".

- CC(=O)/C=C/C1C(C)=CCCC1(C)C (stereo partly drawn): melting point -13.7 °C (via OCHEM, eChemPortal)
- COc1ccc2c(c1)CC[C@@H]1[C@@H]2CC[C@]2(C)[C@@H](OC(C)=O)CC[C@@]12C: melting point 105 °C (via eChemPortal)
- Cc1ccc(-n2[nH]nnc2=S)cc1: melting point 113 °C (via OCHEM)
- O=C(O)c1ccccc1SC(F)F: melting point 115 °C (via OCHEM)
- CN(C)C(=S)SCCCS(=O)(=O)[O-].[Na+]: melting point 243 °C (via eChemPortal)
- Oc1ccccc1-c1cccs1: melting point 41.25 °C (via eChemPortal)
- COc1ccccc1CCNC(=O)CCl: melting point 79 °C (via OCHEM)
- CO/N=C(\C(C)=O)C1(C)OCC(C)(C)CO1: melting point 40 °C (via eChemPortal)
- NNC(=O)CNc1ccccc1: melting point 127 °C (via OCHEM)
- CS(=O)(=O)Nc1cccc(C#N)c1: melting point 155 °C (via OCHEM)
- CC(=O)Oc1ccc(C)cc1: melting point -14.41 °C (via eChemPortal)
- Cc1ccc(C(C)(C)O)cc1: melting point 9 °C (via PubChem)
- Cc1ccc2c(C)cc(Cl)nc2c1: melting point 50 °C (via OCHEM)
- Fc1ccc(C(c2ccc(F)cc2)C(Cl)Cl)cc1: melting point 77 °C (via OCHEM)
- NS(=O)(=O)c1cccc(NC(=O)CCl)c1: melting point 166 °C (via OCHEM)
- C=CCn1c(=S)[nH]c2sccc2c1=O: melting point 213 °C (via OCHEM)
- Cc1ccc(S(=O)(=O)Nc2ccc3nn(C4CCCC4)nc3c2)cc1: melting point 126 °C (via OCHEM)
- O=C(O)c1cc(Cl)c[nH]1: melting point 183 °C (via OCHEM)
- O=Cc1sc(Cl)nc1Cl: melting point 40 °C (via OCHEM)
- Cc1cccc(CC(N)=S)c1: melting point 76 °C (via OCHEM)
- O=C1CCCCC1c1ccccc1 (stereo unspecified): melting point 57.5 °C (via OCHEM)
- NCC1(Nc2ccccc2)CCCCC1: melting point 62 °C (via OCHEM)
- CCCCNc1c(N)n(CCC)c(=O)[nH]c1=O: melting point 202 °C (via OCHEM)
- CC1CC(C)(C)CC2(C1)NC(=O)NC2=O (stereo unspecified): melting point 274 °C (via OCHEM)
- c1ccc2cc(C3CO3)ccc2c1 (stereo unspecified): melting point 58 °C (via OCHEM)
- FC(F)(F)C(F)(OCCC[Si](Cl)(Cl)Cl)C(F)(F)F: melting point 0 °C (via ChemicalBook)
- Cc1c(C(=O)O)oc2c1C(=O)CC(C)(C)C2: melting point 200 °C (via OCHEM)
- OCc1ccc(N2CCCC2)cc1: melting point 62 °C (via OCHEM)
- COc1ccc2nc(C(=O)O)ccc2c1: melting point 185 °C (via OCHEM)
- CN(C)C(N)=S: melting point 145 °C (via OCHEM)
- O=C(O)Cn1nnc2ccccc2c1=O: melting point 148 °C (via OCHEM)
- C=C(C)C(=O)NCOCCCC: melting point -8 °C (via eChemPortal)
- Cn1c(=O)c2c(ncn2CCCC(=O)O)n(C)c1=O: melting point 168 °C (via OCHEM)
- O=C(O)CCCc1ccc(Br)s1: melting point 56 °C (via OCHEM)

Excerpt, the opening 4 entries:

SMILES	melting point (°C)	via
CC(=O)/C=C/C1C(C)=CCCC1(C)C (stereo partly drawn)	-13.7	OCHEM, eChemPortal
COc1ccc2c(c1)CC[C@@H]1[C@@H]2CC[C@]2(C)[C@@H](OC(C)=O)CC[C@@]12C	105	eChemPortal
Cc1ccc(-n2[nH]nnc2=S)cc1	113	OCHEM
O=C(O)c1ccccc1SC(F)F	115	OCHEM

Values as listed in the OPERA 2.9 repository of K. Mansouri.